Amino acid sequences for entries named in this document (tags omitted). A change or cut given only in a name is not applied to a line headed by its entry.
UniProt P50579: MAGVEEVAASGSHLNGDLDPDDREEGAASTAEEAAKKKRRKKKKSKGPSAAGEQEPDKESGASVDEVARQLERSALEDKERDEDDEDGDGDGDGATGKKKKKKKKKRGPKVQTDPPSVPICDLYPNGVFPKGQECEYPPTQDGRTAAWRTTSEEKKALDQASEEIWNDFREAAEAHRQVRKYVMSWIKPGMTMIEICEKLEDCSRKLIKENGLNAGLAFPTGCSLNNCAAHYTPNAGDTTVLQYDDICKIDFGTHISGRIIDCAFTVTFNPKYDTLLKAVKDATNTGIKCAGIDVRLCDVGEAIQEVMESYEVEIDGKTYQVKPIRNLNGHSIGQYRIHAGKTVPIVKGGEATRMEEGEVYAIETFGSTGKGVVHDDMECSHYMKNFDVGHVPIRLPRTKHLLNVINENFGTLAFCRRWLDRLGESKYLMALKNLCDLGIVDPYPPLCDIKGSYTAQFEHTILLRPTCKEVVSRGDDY

In patent US20200003759A1, “METHODS FOR IDENTIFYING METAP-2 MODULATORS” (Zafgen, Inc., priority 2017, published 2020):

Assays:
HUVEC = assay: Inhibition of HUVEC proliferation as a function of drug exposure time (washout assay)
HUVECs = assay: Cell-associated drug concentration in HUVECs (LC-MS/MS); assay type: in vitro ADME, human; details: 10, 30, or 100 nM for 1 hour, then washed (FIG. 8A)
Protocol: For LC-MS/MS experiments, cells were plated at 3×10^4 cells/mL on tissue culture-treated T175 flasks at 35 mL/flask in triplicate and allowed to equilibrate overnight in a CO2 incubator. On the day of the experiment, cell culture medium was removed, and fresh medium was added, along with drug or vehicle. Target compounds and beloranib were diluted in DMSO to yield stock concentrations of 10 μM. Subsequent dilutions were made in EGM-2 culture medium to yield a final DMSO concentration of 0.1% for cell incubations.
Cell lysates were stored at −80° C.
Thus, similar and maximal binding to MetAP2 protein occurred with the 10 nM concentration of both Compound A and beloranib and subsequent MetAP2 target engagement studies employed a 10 nM concentration of both drugs.

thrombomodulin (TM) = system: thrombomodulin (TM)
Protocol: For LC-MS/MS sample preparation, cell culture media was removed, cells were washed with 10 mL of Dulbecco's phosphate-buffered saline (DPBS), and 500 μL of T-PER lysis buffer was added. Cell lysates were stored at −80° C. […] For the 4- and 8-hour incubations, cells were maintained by standard culture for the remainder of the 72-hour incubation period. Cell cycle protein levels were assessed using enzyme-linked immunosorbent assays.
HUVEC cells were exposed to compounds at concentrations of 1 nM, 3 nM, 10 nM, and 20 nM. […] The protein assays performed included measurements of total p21, thrombomodulin, total p53, PAI-1, and von Willibrand factor (vWF). All values obtained were normalized against protein concentration.

MetAP2 [1] = target: T1, MetAP2 (Homo sapiens, UniProt P50579); details: HUVECs; 10 nM, 2 hours exposure, washed, 72-hour culture (FIG. 6D)
MetAP2 [2] = target: T1, MetAP2; details: HepG2 cells; 2 hours exposure, washed out (FIG. 7A)
MetAP2 [3] = target: T1, MetAP2; details: HUVECs, 10 nM, 2 hours exposure, washed, 72-hour culture (FIG. 6C, 7B)

Structure (SMILES)	% inhibition 6XIC90 4 h exposure (HUVEC; 6XIC90, 4 h exposure)	% inhibition 6XIC90 24 h exposure (HUVEC; 6XIC90, 24 h exposure)	% inhibition 20XIC90 4 h exposure (HUVEC; 20XIC90, 4 h exposure)	% inhibition 20XIC90 24 h exposure (HUVEC; 20XIC90, 24 h exposure)	cell-associated concentration, fold higher than Compound A (HUVECs)	TM protein level (thrombomodulin (TM); 72 hours of incubation, all concentrations (1, 3, 10, 20 nM))	TM protein level (thrombomodulin (TM); short 4- or 8-hour incubations, 10 and 20 nM)	THX 1-6 concentrations over 72 hours (MetAP2 [1])	proportion of MetAP2 that contained drug in the active site over 72 hours (MetAP2 [2])	MetAP2 target engagement (drug bound to active site) over 72 hours (MetAP2 [3])	MetAP2 target engagement (drug bound to active site) over 72 hours (MetAP2 [3]; listed as compound A)
CO[C@@H]1[C@H](OC(=O)/C=C/c2ccc(OCCN(C)C)cc2)CC[C@]2(CO2)[C@H]1[C@@]1(C)O[C@@H]1CC=C(C)C [Beloranib, beloranib]	45%	67%	64%	72%	more than 10 fold	reduced TM levels	reduced TM protein levels				
CO[C@@H]1[C@H](OC(=O)N2CC(CCN3CCOCC3)C2)CC[C@]2(CO2)[C@H]1[C@@]1(C)O[C@@H]1CC=C(C)C [Compound A]								consistently low	declined similarly over the 72 hours	target engagement declined	target engagement decreased over the 72-hour time period

Read-outs that look alike come from different tables or passages of the source.
